Activity data for 3 compounds are collected here from ChEMBL document CHEMBL4834497, “Spirocyclic Thiohydantoin Antagonists of F877L and Wild-Type Androgen Receptor for Castration-Resistant Prostate Cancer” (ACS Med Chem Lett, 2021).

The source made the active and inactive calls. The calls are words filed in the database; no cut-off is given here.

For test [1], the target named is T1, Androgen receptor (Rattus norvegicus) (UniProt P15207).
T1 sequence (whole entry): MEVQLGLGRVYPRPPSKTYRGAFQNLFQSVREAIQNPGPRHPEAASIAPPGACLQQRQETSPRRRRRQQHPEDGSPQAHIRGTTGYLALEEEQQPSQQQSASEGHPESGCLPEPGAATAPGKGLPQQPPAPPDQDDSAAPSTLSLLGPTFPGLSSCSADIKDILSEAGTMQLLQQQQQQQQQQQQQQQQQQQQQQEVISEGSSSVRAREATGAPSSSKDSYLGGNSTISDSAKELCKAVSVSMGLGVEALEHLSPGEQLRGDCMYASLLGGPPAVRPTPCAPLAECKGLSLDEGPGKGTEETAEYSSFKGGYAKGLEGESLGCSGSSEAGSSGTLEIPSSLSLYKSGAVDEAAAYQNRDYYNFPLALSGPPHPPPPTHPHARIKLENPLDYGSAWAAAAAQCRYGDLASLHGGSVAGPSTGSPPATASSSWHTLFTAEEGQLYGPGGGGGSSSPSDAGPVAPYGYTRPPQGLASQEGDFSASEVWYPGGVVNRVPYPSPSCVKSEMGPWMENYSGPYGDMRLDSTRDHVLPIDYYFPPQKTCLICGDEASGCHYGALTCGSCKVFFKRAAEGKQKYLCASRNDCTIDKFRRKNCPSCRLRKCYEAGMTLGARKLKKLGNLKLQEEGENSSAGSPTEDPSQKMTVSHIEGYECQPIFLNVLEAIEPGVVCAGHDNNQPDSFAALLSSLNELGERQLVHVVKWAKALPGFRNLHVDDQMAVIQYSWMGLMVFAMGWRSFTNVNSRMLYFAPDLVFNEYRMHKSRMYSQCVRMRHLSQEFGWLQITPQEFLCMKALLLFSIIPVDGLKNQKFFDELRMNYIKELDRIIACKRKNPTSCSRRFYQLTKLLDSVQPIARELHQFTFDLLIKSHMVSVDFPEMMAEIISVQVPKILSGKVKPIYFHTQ
Nature of the test: In vivo antagonist activity at AR in peripubertal castrated Sprague-Dawley rat assessed as inhibition of testosterone propionate-induced androgen-sensitive organ growth by measuring decrease in ventral prostate weight at 5 mg/kg, po QD for 10 days and measured 24 hrs post last dose by Hershberger's assay. The format is functional, organism-based. To be noted: time 11.0 day.

Test [2] deals with T1, Androgen receptor (Rattus norvegicus). In words: In vivo antagonist activity at AR in peripubertal castrated Sprague-Dawley rat assessed as inhibition of testosterone propionate-induced androgen-sensitive organ growth by measuring decrease in seminal vesicles and coagulating glands weight at 5 mg/kg, po QD for 10 days and measured 24 hrs post last dose by Hershberger's assay. Type of test: functional, organism-based. Conditions: time 11.0 day.

With `CNC(=O)c1cc2c(cc1F)CC1(C2)C(=O)N(c2ccc(C#N)c(C(F)(F)F)c2)C(=S)N1C(C)C` (stereo unspecified), the outcome in test [1] and in test [2] was Active.
`CNC(=O)c1cc2c(cc1F)C[C@@]1(C2)C(=O)N(c2ccc(C#N)c(C(F)(F)F)c2)C(=S)N1C(C)C`: the outcome in test [1] and in test [2] was inactive.
In the case of `CNC(=O)c1cc2c(cc1F)C[C@]1(C2)C(=O)N(c2ccc(C#N)c(C(F)(F)F)c2)C(=S)N1C(C)C`, the outcome in test [1] and in test [2] was Active.
